Here are results for one compound from ChEMBL document CHEMBL4007404, “Identification of High-Potency Human TLR8 and Dual TLR7/TLR8 Agonists in Pyrimidine-2,4-diamines” (J Med Chem, 2017).

Active and inactive are the calls of the source. No cut-off for these calls is given here.

This assay deals with T1, Toll-like receptor 8 (Homo sapiens) (UniProt Q9NR97).
T1 sequence (whole entry): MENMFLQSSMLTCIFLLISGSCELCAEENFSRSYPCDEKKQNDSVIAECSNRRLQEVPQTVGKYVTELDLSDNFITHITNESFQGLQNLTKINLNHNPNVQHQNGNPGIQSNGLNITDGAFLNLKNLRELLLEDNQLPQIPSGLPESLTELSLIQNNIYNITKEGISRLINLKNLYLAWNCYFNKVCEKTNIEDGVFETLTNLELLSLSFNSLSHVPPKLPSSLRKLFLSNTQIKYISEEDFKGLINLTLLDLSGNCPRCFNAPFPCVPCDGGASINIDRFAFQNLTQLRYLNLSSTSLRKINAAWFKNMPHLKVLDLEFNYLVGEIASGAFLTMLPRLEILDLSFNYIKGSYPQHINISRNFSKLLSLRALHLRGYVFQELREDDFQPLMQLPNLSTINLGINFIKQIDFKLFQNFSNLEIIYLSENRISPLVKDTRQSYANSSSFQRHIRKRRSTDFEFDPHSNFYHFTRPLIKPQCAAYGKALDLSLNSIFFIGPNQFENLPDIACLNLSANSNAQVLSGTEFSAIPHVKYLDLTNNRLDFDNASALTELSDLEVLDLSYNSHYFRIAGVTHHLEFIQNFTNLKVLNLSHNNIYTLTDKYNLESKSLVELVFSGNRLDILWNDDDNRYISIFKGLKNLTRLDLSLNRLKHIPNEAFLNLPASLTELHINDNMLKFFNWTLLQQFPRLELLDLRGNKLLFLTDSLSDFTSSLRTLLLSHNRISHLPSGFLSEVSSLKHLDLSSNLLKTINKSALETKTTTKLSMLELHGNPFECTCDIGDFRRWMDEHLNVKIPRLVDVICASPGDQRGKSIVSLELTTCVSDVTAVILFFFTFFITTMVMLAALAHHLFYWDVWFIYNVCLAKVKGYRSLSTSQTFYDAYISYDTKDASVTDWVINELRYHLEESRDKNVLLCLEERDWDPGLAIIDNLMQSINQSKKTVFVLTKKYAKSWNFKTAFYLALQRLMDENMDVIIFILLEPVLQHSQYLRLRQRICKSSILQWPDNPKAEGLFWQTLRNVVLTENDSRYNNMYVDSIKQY
The assay can be described thus: Agonist activity at TLR8 in human […] conventional dendritic cells assessed as upregulation of CD80 expression after 16 hrs by efluor 780 dye based flow cytometry. Summed up:
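Human PBMCs were incubated with serial compound dilutions at 37 °C for 16 h, with DMSO controls. Cells were stained with eFluor780 viability dye, then lineage and DC antibodies plus CD80 PE, and fixed. 250,000 gated events were acquired. pDCs were gated as Live Lin⁻ CD123⁺ CD303⁺ CD304⁺ HLA-DR⁺. cDCs were gated as Lin⁻ CD1c⁺ CD141⁻ CD11c⁺ HLA-DR⁺ or Lin⁻ CD141⁺ CD1c⁻ HLA-DR⁺. Median fluorescence intensity was quantified.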
For orientation: In flow cytometry, cells or beads pass a laser one at a time.

Regarding `CCCCCc1cc2c(CCCCCN)cccc2nc1N`, the result was Active.
